Laboratory results reported in article PMC11887051 (ACS Chemical Neuroscience, 2025).

The chains behind the UniProt entries cited, without tags or fusion partners.
UniProt P57789, whole entry: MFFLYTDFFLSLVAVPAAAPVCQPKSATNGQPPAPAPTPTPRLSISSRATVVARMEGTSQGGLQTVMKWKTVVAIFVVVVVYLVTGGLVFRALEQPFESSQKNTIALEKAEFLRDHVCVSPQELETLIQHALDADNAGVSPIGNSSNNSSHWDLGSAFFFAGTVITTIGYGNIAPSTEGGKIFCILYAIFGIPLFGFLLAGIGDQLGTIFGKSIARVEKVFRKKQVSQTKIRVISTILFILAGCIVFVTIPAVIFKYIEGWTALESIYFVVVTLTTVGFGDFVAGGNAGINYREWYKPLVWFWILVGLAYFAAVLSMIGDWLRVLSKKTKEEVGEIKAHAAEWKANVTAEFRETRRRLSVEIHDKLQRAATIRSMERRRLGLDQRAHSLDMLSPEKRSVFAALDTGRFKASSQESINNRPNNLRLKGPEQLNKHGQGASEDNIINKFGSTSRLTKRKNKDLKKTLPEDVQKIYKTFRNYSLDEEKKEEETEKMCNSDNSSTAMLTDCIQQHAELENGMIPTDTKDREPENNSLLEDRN
UniProt O95069, whole entry: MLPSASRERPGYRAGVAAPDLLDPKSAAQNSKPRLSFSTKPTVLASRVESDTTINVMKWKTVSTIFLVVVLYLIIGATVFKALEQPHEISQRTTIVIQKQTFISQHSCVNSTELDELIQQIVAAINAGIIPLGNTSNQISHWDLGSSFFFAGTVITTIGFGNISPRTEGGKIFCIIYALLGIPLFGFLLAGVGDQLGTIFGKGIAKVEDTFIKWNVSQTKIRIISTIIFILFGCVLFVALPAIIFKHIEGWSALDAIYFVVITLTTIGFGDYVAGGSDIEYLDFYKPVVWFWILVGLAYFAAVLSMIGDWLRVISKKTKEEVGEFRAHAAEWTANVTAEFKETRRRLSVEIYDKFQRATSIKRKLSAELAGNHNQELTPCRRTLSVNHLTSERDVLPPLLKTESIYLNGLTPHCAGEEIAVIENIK

Legend:
TREK-2 = TREK-2 (Homo sapiens, UniProt P57789); test: Additional TREK SAR (Figure S5), TREK-2, assay not named; type: cell-based
TREK-1 = TREK-1 (Homo sapiens, UniProt O95069); test: Additional TREK SAR (Figure S5), TREK-1, assay not named; type: cell-based

Row | Compound | TREK-2 (%) (TREK-2) | TREK-1 (%) (TREK-1)
1 | O=C(NCc1ccc(OC(F)(F)F)cc1)c1ccc(-n2cncn2)cc1 | 152 | 57
2 | O=C(NCc1ccc(OC(F)(F)F)c(F)c1)c1ccn2cnnc2c1 | 182 | 90
3 | O=C(NCc1ccc(OC(F)(F)F)cc1F)c1ccn2cnnc2c1 | 185 | 98
4 | O=C(NCc1ccc(OC(F)(F)F)cc1F)c1cc2ncccn2n1 | 161 | 32
5 | COc1cc(OC(F)(F)F)ccc1CNC(=O)c1ccn2cnnc2c1 | 152 | 75
6 | O=C(NCc1ccc(OC(F)(F)F)c(F)c1)c1ccc2ncnn2c1 | 141 | 90
